Values quoted from earlier work, collected in US20070224637A1, “Oxidative protection of lipid layer biosensors” (priority 2006, published 2007).

Molecule | Solubility In alcohol | Solubility In oil | Solubility In water (in water)
O=S([O-])O.[Na+] [Sodium bisulfite] | Slightly | – | –
O=S([O-])[O-].[Na+].[Na+] [Sodium sulfite] | – | No | –
Acetone sodium bisulfite | No | No | Yes
Sodium thiosulfate | No | – | –
